{
  "source": "patent US20170369677A1",
  "about": "“MATERIALS FREE OF ENDOCRINE DISRUPTIVE ACTIVITY” (CertiChem, Inc., priority 2006, published 2017)",
  "origin": "cited, not measured here",
  "conditions": "common antioxidants used in plastic formulations, Table P-2",
  "data": [
    {"molecule": "Cc1cc(C(C)(C)C)c(O)c(C(C)(C)C)c1", "note": "[BHT, Butylated hydroxytoulene]", "values": [
      {"measurement": "Carcinogenic or Other Toxic Effects", "value": "Yes"}
    ]}
  ]
}
